Data as given in article PMC2946983 (Bioorganic & medicinal chemistry, 2010).

Amino acid sequences for entries named in this document (tags omitted). Residues count along the entry.
UniProt P28335, 33-458: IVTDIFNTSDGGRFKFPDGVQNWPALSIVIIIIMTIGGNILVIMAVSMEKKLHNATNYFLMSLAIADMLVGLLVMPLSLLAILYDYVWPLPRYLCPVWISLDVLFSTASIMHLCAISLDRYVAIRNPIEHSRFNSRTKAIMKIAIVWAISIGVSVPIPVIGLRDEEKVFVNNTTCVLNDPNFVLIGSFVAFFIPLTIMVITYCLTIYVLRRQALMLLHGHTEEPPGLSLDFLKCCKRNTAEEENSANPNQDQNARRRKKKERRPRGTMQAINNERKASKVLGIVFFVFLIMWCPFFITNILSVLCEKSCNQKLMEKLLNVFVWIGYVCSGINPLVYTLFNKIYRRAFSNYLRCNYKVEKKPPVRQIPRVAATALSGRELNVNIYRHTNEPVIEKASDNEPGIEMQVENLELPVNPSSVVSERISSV

Biological target: cloned human serotonin 5-HT2C receptor (Homo sapiens, UniProt P28335)
Experiment: radioligand binding

Kd: 1.8 ± 0.726 nM
Structure (SMILES): CN1C[C@@H](NS(=O)(=O)N(C)C)C[C@@H]2c3cccc4c3c(cn4C)C[C@H]21 [[^3H]mesulergine, N′-(1-methyl-6-methylergolin-8alpha-yl)-N,N-dimethylsulfamide, reference compound]
